## Measured affinities in a library of Ab-14 heavy chain variants

Target: peptide PDVDLGDISGINAS, taken from heptad repeat 2 (HR2) of SARS-CoV-2 spike.

The variants keep the light chain, the linker and the frameworks of Ab-14 (scFv order VH, a (GGGGS)3 linker, VL).
VH: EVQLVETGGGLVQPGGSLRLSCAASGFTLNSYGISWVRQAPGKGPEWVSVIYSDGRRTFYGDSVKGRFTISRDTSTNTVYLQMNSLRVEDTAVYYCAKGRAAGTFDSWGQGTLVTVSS
VL: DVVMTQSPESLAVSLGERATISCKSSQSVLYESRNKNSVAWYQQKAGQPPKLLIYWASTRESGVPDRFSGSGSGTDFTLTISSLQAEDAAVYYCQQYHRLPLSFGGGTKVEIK

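Phage display of a naive human antibody library on the peptide gave the parent. The variants were designed computationally from a first round of random CDR variants and then made and measured. Several design methods are mixed in this list. Affinity was read by AlphaSeq, a pooled yeast mating assay with surface-displayed partners. After mating in shaken culture at 30 °C for 16 h, diploids were selected and their barcode pairs sequenced. Each replicate has its own calibration line, from reference interactions of the BCL2 family. Mating was done six times.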

Variants are written as CDR1, CDR2 and CDR3 of the heavy chain (limits as in the source). Parent: GFTLNSYGIS, VIYSDGRRTFYGDSVK, GRAAGTFDS.
Values are log10 of the apparent Kd in nM; lower means stronger binding.
Replicates are averaged; those with no signal do not enter the mean.
"not detected" marks a missing value. The strain was present, yet no cells mated with the target were sequenced in any replicate, which points to weak or no binding.
The authors' rule: three or more of the six replicates give a measured affinity, fewer mean a poor binder.
Of ten entries with the parent sequence, four were seen in most replicates (averages 0.34 to 2.37), three in one and three in none, so single entries are noisy.
Empty control strains, which show no peptide, gave a signal in 1% of pairings with all heavy chain designs; the median was 2.08 and 95% of these signals were weaker than 0.84. No background was subtracted. The control count says in how many pairings with the empty strains this scFv gave a signal.
The range of this assay differs from that of the first round, and the authors advise against merging the two.

CDR-H1,CDR-H2,CDR-H3,"log10 Kd (nM), mean",seen in,signal with controls
GFDLNEYGIS,VIYADGVRTAYTDSVK,GNVAGTFDT,-0.50,6 of 6,1 of 18
GFQLNSYGIS,VIYSDGRRTFYADSVK,GREAGTFDQ,not detected,0 of 6,0 of 18
GFSLNSYGIS,VIYSDGRRTFYGDSVK,GLVAGTFDS,0.19,6 of 6,1 of 18
GFDLDEYGIS,VIYADGSRTAYIDSVK,GENAGTFDV,0.01,6 of 6,0 of 18
GFDLDEYGIS,VIYADGRRTFYADSVK,GTNAGTFLT,-0.15,6 of 6,0 of 18
GFELNEYGIS,VIYSDGRRTFYGDSVK,GRAAVTFDS,not detected,0 of 6,0 of 18
GFTLNSYGIS,VIYSDGRRTFYGDSVK,GKYAGHGDS,2.44,1 of 6,0 of 18
GFQLNSYGIS,VIYSDGRRTFYADSVK,GQAAGTFDL,1.09,4 of 6,0 of 18
GFDLNEYGIS,VIYADGQRTAYADSVK,GKNAGTFDI,0.59,6 of 6,1 of 18
GFTLNSYGIS,VIYSDGRRTFYGDSVK,GRAGVTFDQ,not detected,0 of 6,0 of 18
GFDLNEYGIS,VIYADGRRTFYSDSVK,GEAAGTFVQ,0.63,6 of 6,0 of 18
LFTLNSYGIS,VIYADGRRTFYGDSVK,GRIAGTFDS,0.38,1 of 6,0 of 18
GFDLNEYGIS,VIYADGMRTAYADSVK,GNEAGTFDM,0.00,6 of 6,0 of 18
GFSLNQYGIS,VIYSDGKRTFYGDSVK,GRTAGTFDS,0.19,6 of 6,1 of 18
GFDLNEYGIS,VIYADGRRTFYADSVK,GEAAGTFFT,0.80,6 of 6,1 of 18
GFDLNSYGIS,VIYSDGRRTFYGDSVK,GREAGSFDS,0.93,6 of 6,1 of 18
GFSLNEYGIS,VIYSDGRRTFYGWSVK,GRQAGTFDS,1.33,2 of 6,0 of 18
GFDLDEYGIS,VIYADGRRTFYKDSVK,GGNAGTFDM,0.13,1 of 6,0 of 18
GFQLNEYGIS,VIYSDGIRTFYGDSVK,GRAAGTFDS,0.37,6 of 6,2 of 18
GFDLNEYGIS,VIYADGQRTAYADSVK,GQNAGTFDQ,not detected,0 of 6,0 of 18
GFTLDSYGIS,VIYSDGRRTFYHDSVK,GRAAGTFDQ,1.26,6 of 6,0 of 18
GEDLNEYGIS,VIYADGRRTYYDNSVK,GKFAGSFFH,not detected,0 of 6,0 of 18
KKSLNSYGIS,VIYSDGRRTFYSDSVK,GRTAGTFDS,1.86,3 of 6,1 of 18
GFDLNTYGIS,VIYSDGRRTFYGDSVK,GKAAGTFDS,0.60,6 of 6,0 of 18
GFALNSYGIS,VIYSDGRRTFYADSVK,GQLAGTFDS,0.81,2 of 6,0 of 18
GNDIDEYGIS,VIYADGQRTAYDEAVK,GTIAGSFFH,2.13,1 of 6,0 of 18
RFTLNDYGIS,VIYSDGLRTFYGDSVK,GRAAGTFDS,not detected,0 of 6,0 of 18
GFPLNDYGIS,VIYSDGRRTFYGDSVK,GKAAGTFDS,0.79,5 of 6,0 of 18
GFSLNSYGIS,VIYSDGRRTFYGDSVK,GKAAGTFDQ,1.47,4 of 6,1 of 18
FFKLEDYGIS,VIYADGKRTAYVDNVK,GEIAGTFDV,1.98,4 of 6,0 of 18
GFTLNEYGIS,VIYSDGRRTFYGDSVK,GREAGTFDS,0.34,6 of 6,1 of 18
GFTLNSYGIS,VIYSDGRRTFYIDSVK,NRAAGTWDS,not detected,0 of 6,0 of 18
GFDLNEYGIS,VIYADGMRTVYSDSVK,GNQAGTFDV,-0.76,4 of 6,0 of 18
GDSLDEMGIS,VIYADGQRSYYADSVK,GEHDGLFFQ,2.55,1 of 6,0 of 18
GFSLNNYGIS,VIYSDGRRTFYIDSVK,GRAAGTFDS,0.92,6 of 6,0 of 18
GFSLNSYGIS,VIYSDGRRTFYGDSVK,GNAAGTFDW,0.79,2 of 6,0 of 18
GFELNSYGIS,VIYADGRRTFYADSVK,GQAAGTFDS,-0.34,6 of 6,0 of 18
GFNLDEYGIS,VIYADGQRTQYANDVK,GGYNGSMLS,not detected,0 of 6,0 of 18
GFDLDEYGIS,VIYADGMRTAYSDSVK,GNVAGTFDL,-0.54,6 of 6,0 of 18
GFSLNSYGIS,VIYSDGRRTFYHDRVK,GEAAGTFDT,not detected,0 of 6,0 of 18
GFDLNEYGIS,VIYADGKRTAYADDVK,GENAGTFDI,-0.07,6 of 6,1 of 18
GFTLTSYGIS,VIYSDGRRTFYGDSVK,GREAGTFDS,0.85,6 of 6,0 of 18
GFTLNEYGIS,VIYQDGRRTFYGDSVK,GRAAVTFDQ,not detected,0 of 6,0 of 18
GFDLKEYGIS,VIYADGVRTHYADDVK,GKHDGTNMA,not detected,0 of 6,0 of 18
GFDLKEQGIS,VIYADGMRTFYSDKVK,GQNSNGFDM,not detected,0 of 6,1 of 18
GFDLDEYGIS,VIYADGSRTYYADSVK,GENAGTFDV,0.19,6 of 6,0 of 18
GFALNSYGIS,VIYSDGRRTFYTDSVK,GQLAGTFDS,1.20,6 of 6,0 of 18
KFTLNSYGIS,VIYSDGRRTFYGDSVK,GRAAGTFFS,not detected,0 of 6,0 of 18
GFSLNSYGIS,VIYADGRRTFYVDSVK,GRAAGTFDS,0.50,6 of 6,0 of 18
GRTLNSYGIS,VIYSDGRRTFYGDSVK,GRAAGTWDS,not detected,0 of 6,0 of 18
GFDLNEYGIS,VIYADGSRTAYSDSVK,GNNAGTFDI,-0.16,6 of 6,1 of 18
GFDLNEYGIS,VIYADGKRTAYADSVK,GNTAGTFDT,-0.13,6 of 6,1 of 18
GFSLNYYGIS,VIYSDGRRTFYGDSVK,GRTAGTFDS,1.44,6 of 6,0 of 18
GKNIDEYGVS,VIYADGKRTAYANNFK,GSNAGFFKS,not detected,0 of 6,0 of 18
GFDLNEYGIS,VIYADGMRTFYADSVK,GNTAGTFDV,-0.33,6 of 6,0 of 18
GFTLNSYGIS,VIYSDGRRKFYGDSVK,GRAAGTFDS,not detected,0 of 6,0 of 18
GFTLNEYGIS,VIYSDGRRTFYGDSVK,GWAAGTFDT,0.24,4 of 6,0 of 18
GNDINEYGIS,VIFADGMRTAYLNDVK,GQMAGLFIM,not detected,0 of 6,0 of 18
GFRLNEYGIS,VIYSDGRRTFYSDSVK,GRAAGTFDS,0.28,6 of 6,0 of 18
GFTLNSYGIS,VIYSDGRRTFYADSVK,GHAAGTFDS,0.91,6 of 6,0 of 18
GFDLDEYGIS,VIYADGQRTAYADDVK,GEVAGTFDL,-0.12,6 of 6,0 of 18
GFTLNSYGIS,VIYMDGRRTFYGDSVK,TQAAGTFDY,not detected,0 of 6,0 of 18
GFMLNSYGIS,VIYSDGRKTFYGDSVK,GRAAGTFDS,1.99,1 of 6,0 of 18
GFSLNSYGIS,VIYADGRRTFYGDSVK,GRAAGTFDQ,0.07,6 of 6,0 of 18
GFSLNSYGIS,VIYSDGRRTFYADAVK,GKTAGTFDS,-0.10,6 of 6,0 of 18
GFDLDEYGIS,VIYADGRRTFYADSVK,GELAGTFFV,0.61,5 of 6,0 of 18
GFALNSYGIS,VIYSDGRRTFYGDSVK,GQSAGTFDS,not detected,0 of 6,0 of 18
GFTLNDYGIS,VIYSDGRRTQTIKSVK,GRAAGTFDS,1.73,1 of 6,0 of 18

The 7 strongest on average among those seen in every replicate, once more:

CDR-H1,CDR-H2,CDR-H3,"log10 Kd (nM), mean",seen in,signal with controls
GFDLDEYGIS,VIYADGMRTAYSDSVK,GNVAGTFDL,-0.54,6 of 6,0 of 18
GFDLNEYGIS,VIYADGVRTAYTDSVK,GNVAGTFDT,-0.50,6 of 6,1 of 18
GFELNSYGIS,VIYADGRRTFYADSVK,GQAAGTFDS,-0.34,6 of 6,0 of 18
GFDLNEYGIS,VIYADGMRTFYADSVK,GNTAGTFDV,-0.33,6 of 6,0 of 18
GFDLNEYGIS,VIYADGSRTAYSDSVK,GNNAGTFDI,-0.16,6 of 6,1 of 18
GFDLDEYGIS,VIYADGRRTFYADSVK,GTNAGTFLT,-0.15,6 of 6,0 of 18
GFDLNEYGIS,VIYADGKRTAYADSVK,GNTAGTFDT,-0.13,6 of 6,1 of 18

The measurements come from Li et al. 2023 (doi:10.1038/s41467-023-39022-2) through the FLAb antibody collection.